# SIRT5 inh = blocks human SIRT5 desuccinylation of peptide | Q9NXA8 | Purified SirT5, succinyl-peptide AMC, trypsin-coupled fluorescence | inhibition, % at 15 µM | hit rate 1.1% among 330,000 | AID 652115; in the data active = inhibition above about 15%
# MLL AF4-AF9 inh = inhibitors of human MLL-AF4/AF9 interaction | P42568 | AlphaScreen, biotin-AF4 peptide binding to FLAG-AF9 | inhibition, % at 10 µM | hit rate 0.47% among 350,000 | AID 651704;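 active = every replicate reaching a set inhibition limit, whatever the replicate mean, cut at about 25% in these data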;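 note: 0% = plate neutral control median and 100% = total signal loss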
# RAD52 anneal inh = inhibitors of human RAD52 DNA annealing; P43351; recombinant RAD52 DNA annealing, FRET fluorescence; inhibition, % at 18.7 µM; hit rate 0.46% among 360,000; AID 651710;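 active = every replicate showing at least 50% inhibition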
# E-sel inducer = induces E-selectin expression in human endothelial cells; P16581; HUVEC E-selectin immunofluorescence imaging; normalized: neutral wells 0, TNF-alpha wells 100; hit rate 0.37% among 260,000; activation, % at 7.58 µM;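 active = mean E-selectin-positive cell signal at least 10% of the positive control, reached in at least 60% of replicates, without over 20% cell loss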
#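 Assay system: HUVEC, human umbilical vein endothelial cells / Amount: 3,000 HUVEC/well / Controls: TNF-alpha positive control, DMSO neutral control / Compound dosing: single concentration / Medium: EGM-2 over gelatin coat / Evaluation: percent E-selectin-positive cells / Signal: immunofluorescence imaging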
# UUG fidelity = modulators of yeast start codon fidelity, primary screen, whole organism, S. cerevisiae, single point, plate reader; S. cerevisiae UUG-firefly luciferase reporter, luminescence/redox ratio; activity score, % at 18.7 µM; actives 0.13% (n = 350,000); AID 602363, 2012;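 active = replicate mean at a twofold rise or more, about +100% in these data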;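 also: firefly luciferase made from a UUG start codon reports start codon fidelity; reporter light over untreated wells divided by growth signal over untreated wells; some hits fall short of that in this replicate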
# RAD54 branch = inhibitors of human RAD54 branch migration. Q92698. RAD54 Holliday junction branch migration, FAM/BHQ fluorescence. inhibition, % at 10.4 µM. hit rate 0.14% among 360,000;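 active = mean normalized replicate activity at least 40 and at least half of replicates scoring 40 or more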;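 note: 0% = median of neutral control wells and 100% = median of positive control wells; inhibitors cause a drop in the FAM fluorescence signal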
# * hit, by the source's call; i = inactive; x = not tested or not shown. The list is not random: actives were taken first. Their share in the collection is about 1.8%.
SMILES,SIRT5 inh,MLL AF4-AF9 inh,RAD52 anneal inh,E-sel inducer,UUG fidelity,RAD54 branch
COc1cccc(OC)c1C(=O)NNC(=O)c1cccnc1,-0.6,34.7*,3.8,-2.8,-20.8,-10.1
Cc1ccc(S(=O)(=O)Nc2ccc3c(c2)C(=O)N([C@H](C)CO)C[C@H](C)[C@@H](CN(C)Cc2ccc(C(F)(F)F)cc2)OCCCC[C@@H](C)O3)cc1,1.7,1.2,7.7,x,7.8,5.2
C[C@@H]1CCCCO[C@H](CN(C)Cc2ccc(C(F)(F)F)cc2)[C@H](C)CN([C@@H](C)CO)C(=O)c2cc(NS(=O)(=O)c3ccc(F)cc3)ccc2O1,-0.5,1.2,-32.8,-0.1,15.0,-8.5
Cc1ccc(S(=O)(=O)Nc2ccc3c(c2)C(=O)N([C@@H](C)CO)C[C@@H](C)[C@H](CN(C)Cc2ccc(C(F)(F)F)cc2)OCCCC[C@@H](C)O3)cc1,18.5*,-2.6,-35.1,x,3.1,3.3
Cc1ccc(S(=O)(=O)Nc2ccc3c(c2)C(=O)N([C@H](C)CO)C[C@H](C)[C@H](CN(C)Cc2ccc(C(F)(F)F)cc2)OCCCC[C@H](C)O3)cc1,32.0*,-1.8,-16.9,x,5.4,1.5
Cc1ccc(S(=O)(=O)Nc2ccc3c(c2)C(=O)N([C@H](C)CO)C[C@@H](C)[C@@H](CN(C)Cc2ccc(C(F)(F)F)cc2)OCCCC[C@@H](C)O3)cc1,17.7*,2.2,-17.3,x,11.9,-1.4
Cc1ccc(S(=O)(=O)Nc2ccc3c(c2)C(=O)N([C@H](C)CO)C[C@@H](C)[C@@H](CN(C)Cc2ccc(C(F)(F)F)cc2)OCCCC[C@H](C)O3)cc1,19.9*,10.0,-49.6,x,13.2,10.7
O=C(O)[C@H]1[C@H](CO)[C@H]2Cn3c(ccc(-c4ccccc4F)c3=O)[C@H]2N1C(=O)c1cnccn1,-0.4,-1.2,9.4,-0.2,x,-2.3
CCCNC(=O)[C@@H]1[C@@H](CO)[C@@H]2Cn3c(cccc3=O)[C@@H]2N1CC1CC1,8.2,0.9,-19.2,0.3,x,-9.6
Cc1ccc(S(=O)(=O)Nc2ccc3c(c2)C(=O)N([C@@H](C)CO)C[C@H](C)[C@@H](CN(C)Cc2ccc(C(F)(F)F)cc2)OCCCC[C@H](C)O3)cc1,23.0*,1.4,-31.4,x,14.9,-1.4

# A few values from the entries so far:
# Cc1ccc(S(=O)(=O)Nc2ccc3c(c2)C(=O)N([C@H](C)CO)C[C@H](C)[C@@H](CN(C)Cc2ccc(C(F)(F)F)cc2)OCCCC[C@@H](C)O3)cc1 in RAD52 anneal inh reads 7.7
# O=C(O)[C@H]1[C@H](CO)[C@H]2Cn3c(ccc(-c4ccccc4F)c3=O)[C@H]2N1C(=O)c1cnccn1 in MLL AF4-AF9 inh reads -1.2
# C[C@@H]1CCCCO[C@H](CN(C)Cc2ccc(C(F)(F)F)cc2)[C@H](C)CN([C@@H](C)CO)C(=O)c2cc(NS(=O)(=O)c3ccc(F)cc3)ccc2O1 in E-sel inducer reads -0.1
# Cc1ccc(S(=O)(=O)Nc2ccc3c(c2)C(=O)N([C@@H](C)CO)C[C@H](C)[C@@H](CN(C)Cc2ccc(C(F)(F)F)cc2)OCCCC[C@H](C)O3)cc1 in UUG fidelity reads 14.9
# Cc1ccc(S(=O)(=O)Nc2ccc3c(c2)C(=O)N([C@H](C)CO)C[C@@H](C)[C@@H](CN(C)Cc2ccc(C(F)(F)F)cc2)OCCCC[C@H](C)O3)cc1 in MLL AF4-AF9 inh reads 10.0

# Next part.
SMILES,SIRT5 inh,MLL AF4-AF9 inh,RAD52 anneal inh,E-sel inducer,UUG fidelity,RAD54 branch
Cc1ccc(S(=O)(=O)Nc2ccc3c(c2)C(=O)N([C@@H](C)CO)C[C@@H](C)[C@H](CN(C)Cc2ccc(C(F)(F)F)cc2)OCCCC[C@H](C)O3)cc1,11.4,0.1,2.2,x,7.8,-0.4
Cc1ccc(NCc2n[nH]c(=S)n2-c2ccccc2)cc1,11.7,-5.3,-15.6,30.3*,x,x
Cc1cccc(NCc2n[nH]c(=S)n2-c2ccccc2)c1,-3.4,-9.7,-7.7,1.1,x,x
C[C@@H]1CCCCO[C@@H](CN(C)C(=O)Nc2ccccc2)[C@H](C)CN([C@H](C)CO)C(=O)c2cc(N(C)C)ccc2O1,x,x,x,-0.1,x,x
CC(=O)Nc1ccc(NC(=O)C(C)OC(=O)c2ccccc2Sc2ccccc2C#N)cc1 (stereo not given),-2.2,96.1*,-22.1,x,-8.7,-3.7
Cc1ccc(NC(=O)CN2C(=O)N/C(=C/c3cc(C)n(-c4ccc(C(=O)O)cc4)c3C)C2=O)cc1,25.9*,2.1,-37.7,x,x,x
O=C1c2cccc(Sc3ccccc3)c2C(=O)c2c(Sc3ccccc3)cccc21,-1.1,5.4,-22.5,-0.3,119.0*,0.1
CC1(C)CC(=O)c2cc(C(=O)NNc3ccccc3)c(=O)n(-c3ccccc3)c2C1,21.5*,0.6,-5.2,0.5,x,x
CO[C@@H]1CN(C)C(=O)c2ccc(NC(=O)Nc3cccc(F)c3)cc2OC[C@@H](C)N(C(C)=O)C[C@H]1C,1.9,1.4,-15.9,-0.2,x,1.4
C[C@H]1CN([C@@H](C)CO)C(=O)c2cc(C3=CCCCC3)cnc2O[C@@H]1CN(C)C(=O)c1ccncc1,-3.0,-1.2,1.1,-0.6,-12.2,-14.7
COCCNC(=O)C[C@H]1C=C[C@H](NS(=O)(=O)c2ccc(C)cc2)[C@H](CO)O1,0.0,1.2,11.2,0.0,-9.7,1.0
CC(=O)N1CC(=O)N2[C@H](CO)[C@@H](c3ccc(-c4cccc(C(=O)N(C)C)c4)cc3)[C@@H]2C1,-0.3,-0.8,-4.1,-0.1,x,x
CC(=O)N1CC(=O)N2[C@@H](CO)[C@H](c3ccc(-c4ccc(C(=O)N(C)C)cc4)cc3)[C@@H]2C1,22.7*,-7.9,5.8,0.4,x,x
CC(C)C#Cc1ccc([C@@H]2[C@H](CO)N3C(=O)CN(C(=O)C4CCCCC4)C[C@@H]23)cc1,23.9*,-11.2,3.7,-0.1,x,x
COc1ccc(C#Cc2ccc([C@H]3[C@@H](CO)N4C(=O)CN(C(C)=O)C[C@H]34)cc2)cc1,26.3*,-1.9,-9.3,-0.2,x,x
CN(C)C(=O)c1cccc(-c2ccc([C@@H]3[C@H]4CN(C(=O)C5CC5)CC(=O)N4[C@H]3CO)cc2)c1,-1.2,-4.5,-12.5,0.1,x,x
CN(C)C(=O)c1cccc(-c2ccc([C@@H]3[C@H](CO)N4C(=O)CN(C(=O)C5CC5)C[C@@H]34)cc2)c1,19.1*,-4.5,7.7,0.1,x,x
COc1ccccc1NC(=O)N1CC(=O)N2[C@H](CO)[C@H](c3ccc(C#Cc4ccc(F)cc4)cc3)[C@@H]2C1,5.3,-1.0,-5.9,0.1,x,x
CCCNC(=O)N1CC(=O)N2[C@H](CO)[C@@H](c3ccc(-c4ccc(F)cc4)cc3)[C@@H]2C1,25.8*,-9.6,-7.1,0.2,x,x
C[C@@H]1CN([C@H](C)CO)C(=O)c2cccc(NC(=O)c3nc4ccccc4s3)c2O[C@H]1CN(C)C(=O)Nc1cccc2ccccc12,x,x,x,0.0,x,x

# Another view of some results above.
mol	SIRT5 inh	MLL AF4-AF9 inh	RAD52 anneal inh	E-sel inducer	UUG fidelity	RAD54 branch
CCCNC(=O)N1CC(=O)N2[C@H](CO)[C@@H](c3ccc(-c4ccc(F)cc4)cc3)[C@@H]2C1	25.8*	-9.6	-7.1	0.2	x	x
C[C@@H]1CN([C@H](C)CO)C(=O)c2cccc(NC(=O)c3nc4ccccc4s3)c2O[C@H]1CN(C)C(=O)Nc1cccc2ccccc12	x	x	x	0.0	x	x

# (list continues)
SMILES,SIRT5 inh,MLL AF4-AF9 inh,RAD52 anneal inh,E-sel inducer,UUG fidelity,RAD54 branch
CO[C@@H]1CN(C)C(=O)c2ccc(NC(C)=O)cc2OC[C@H](C)N(Cc2cncnc2)C[C@@H]1C,x,-1.2,x,0.0,x,-3.3
Cc1ccc(COc2ccc(/C=N/O)cc2)cc1,-4.2,3.2,-22.2,106.6*,x,x
C[C@H](CO)N1C[C@H](C)[C@H](CN(C)C)Oc2c(NS(C)(=O)=O)cccc2C1=O,-2.6,-2.0,5.0,-0.9,4.8,-7.2
C[C@H](CO)N1C[C@H](C)[C@H](CN(C)S(C)(=O)=O)Oc2c(NS(C)(=O)=O)cccc2C1=O,-0.5,-2.7,3.2,64.0*,-13.8,4.5
C[C@H]1CN([C@@H](C)CO)C(=O)c2cccc(NS(C)(=O)=O)c2O[C@H]1CN(C)S(C)(=O)=O,-2.3,-3.3,3.3,36.4*,-20.0,0.6
O=C1c2ccccc2C(=O)c2c1cccc2N1CCCC1,9.0,39.9*,7.8,0.8,6.4,6.8
CCOc1ccc2noc3c2c1C(=O)c1ccccc1-3,x,x,x,x,-6.5,0.6
O=C1c2ccccc2-c2onc3ccc(N4CCCC4)c1c23,0.3,28.4*,i,x,x,x
CCOC(=O)C1=C(c2ccccc2)NC(N)=NC1c1ccc(OCc2ccc(Cl)cc2)c(OC)c1 (stereo not given),-0.7,26.6*,-8.9,1.2,x,x

# Screening data as filed in PubChem.
